This note sets out measurements from article PMC10977697 (PLOS ONE, 2024).

Sequences and labels used below:
B1: HtrA1_AVR62 (designed binder)
chain: AFDCLGQCGRCDFHKLQCVRQIVWRVINLSHYCNSSCTR
notes: AVR9 scaffold; source: synthetic peptide, folded in vitro
B2: HtrA1_AVR61 (designed binder)
chain: AFDCLGQCGRCDFHKLQCVMVYFIHMTKPYCNSSCTR
notes: as for B1
B3: HtrA1_AVR62 displayed on M13 phage (designed binder)
chain: B1 chain
notes: AVR9 scaffold; source: M13 phage from E. coli, culture supernatant
B4: HtrA1_AVR61 displayed on M13 phage (designed binder)
chain: B2 chain
notes: as for B3

The target of one experiment is T1, HtrA1 (human, UniProt Q92743 23-480, biotin on lysines (Sulfo-NHS-LC-biotin) for panning and SPR). Nature of the experiment: cell-based or functional assay.
Details: not given
As to GCHRPWWQLWGLCKQDSDCLAGCVCGPNGFCG (designed binder) [HtrA1_EET76], the “inhibition of HtrA1 enzyme activity (substrate H2-OPT), 20 μM DCP” value (“inhibition of HtrA1 enzyme activity” below) is over 50%.

For the molecule WIPCISAALGCSCKNKVCYIFSKHLCGESCV (designed binder) [HtrA1_CirA65], the “inhibition of HtrA1 enzyme activity” value is over 75%.

With WIPCISAALGCSCKNKVCYFLYQICGESCV (designed binder) [HtrA1_CirA38], the “inhibition of HtrA1 enzyme activity” value is over 75%.

Regarding B1, the “inhibition of HtrA1 enzyme activity” value was over 75%.

The target in another experiment is T1, HtrA1. As to the kind of experiment: SPR. As to conditions: both partners purified.
Consider B1, for which the Kd (in general, a measure of binding affinity in units of concentration) was over 15 µM.

In the case of GPTQSFWGWCGGIGYVGGRYCSGTTCQRPDAHWSQCLPGAS (designed binder) [HtrA1_CBDamy86], the Kd was determined as 158 µM.

B2 had a Kd of over 20 µM.

For the next experiment, the target named is T1, HtrA1. Nature of the experiment: ELISA. As to conditions: one partner purified. (In general: ELISA stands for enzyme-linked immunosorbent assay.)
For the molecule B3, the s/n ratio turned out to be 19.5.

In the case of GPTQSFWGWCGGIGYVGGRYCSGTTCQRPDAHWSQCLPGAS (designed binder) [HtrA1_CBDamy86 displayed on M13 phage], the s/n ratio was 22.8.

On to B4, for which the s/n ratio was 24.4.
